In PMC8471592, “Characterization of Conserved and Promiscuous Human Rhinovirus CD4 T Cell Epitopes” (Cells, 2021):

What was measured:
[1] = biological target: HLA-DQA1*05:01/DQB1*03:01 (Homo sapiens, UniProt P01909+P01920); test: biochemical
[2] = biological target: HLA-DQA1*01:02/DQB1*06:02 (Homo sapiens, UniProt P01909+P01920, A157G/A45G/C70R/E118A/E183D/E77G/F83G/G63E/H151Q/H199R/H252R/H253Q/I129T/I235V/I88M/INS77G/K197Q/L117V/L119F/L178F/L71W/L74F/L85Q/L91A/L98M/N214S/P87R/Q116E/Q76K/R102G/R240Q/R75S/R78G/S102Y/S185I/S41F/S97I/T121G/T122I/T172A/T86R/V229M/V68A/V73E/Y34C/Y41F/Y58L); test: Competitive inhibition HLA II binding assay; details: competition with radiolabeled probe peptide, purified HLA II, 0.3 nM–30 µM, 2-day incubation; mean of three or more independent assays
[3] = biological target: HLA-DQA1*05:01/DQB1*02:01 (Homo sapiens, UniProt P01909+P01920, A45G/A70V/D89A/E106A/E77G/E98D/H199R/L107V/N214S/P84L/P87L/T103K/T109R/T172A/T60S/V78E/V99I/Y58L/Y62S/Y69I/Y79F); test: biochemical
[4] = biological target: HLA-DQA1*02:01/DQB1*02:02 (Homo sapiens, UniProt P01909+P01920, A45G/A70V/C70K/D167G/D89A/E106A/E183D/E77G/E98D/F237L/F77L/G63E/H199R/I129T/K197E/L107V/L178F/L74F/N214S/P84L/P87L/Q57E/Q76R/R75H/S185I/S97I/T103K/T109R/T172A/T60S/V73L/V78E/V99I/Y48F/Y58L/Y62S/Y69I/Y79F); test: Competitive inhibition HLA II binding assay; details: competition with radiolabeled probe peptide, purified HLA II, 0.3 nM–30 µM, 2-day incubation; mean of three or more independent assays
[5] = biological target: HLA-DQA1*03:01/DQB1*03:01 (Homo sapiens, UniProt P01909+P01920, A209T/C70Q/DUP78-78/E183D/F237L/G63E/I129T/K197E/L178F/L74F/L98V/Q57E/Q76R/S185I/S97I/T49S/V73L); test: Competitive inhibition HLA II binding assay; details: competition with radiolabeled probe peptide, purified HLA II, 0.3 nM–30 µM, 2-day incubation; mean of three or more independent assays
[6] = biological target: HLA-DQA1*01:01/DQB1*05:01 (Homo sapiens, UniProt P01909+P01920, A157S/A45G/A70V/C70R/D89V/E106S/E118A/E183D/E77G/F83G/G63E/H151Q/H199R/H252R/H253Q/I129T/I235V/I88M/INS77G/K197Q/L107V/L117V/L119Y/L178F/L71W/L74F/L85Q/L91A/L98M/M46L/N214S/P87R/Q116E/Q256R/Q57E/Q76K/R102G/R240Q/R75S/R78G/S102Y/S185I/S41F/S97I/T103A/T109R/T121G/T122I/T172A/T86R/V148I/V68A/V73E/Y34C/Y58G/Y62H); test: Competitive inhibition HLA II binding assay; details: competition with radiolabeled probe peptide, purified HLA II, 0.3 nM–30 µM, 2-day incubation; mean of three or more independent assays

SMILES	IC50 [1] [µM]	IC50 [2] [µM]	IC50 [3] [µM]	IC50 [4] [µM]	IC50 [5] [µM]	IC50 [6] [µM]
CC[C@H](C)[C@H](NC(=O)CNC(=O)[C@H](CCCCN)NC(=O)[C@H](CCC(=O)O)NC(=O)[C@H](CC(C)C)NC(=O)[C@@H](NC(=O)[C@H](CC(=O)O)NC(=O)[C@H](CCCCN)NC(=O)[C@@H](N)C(C)C)C(C)C)C(=O)N1CCC[C@H]1C(=O)N[C@H](C(=O)N[C@@H](CC(C)C)C(=O)N[C@@H](CCC(N)=O)C(=O)N[C@@H](CO)C(=O)N1CCC[C@H]1C(=O)N[C@H](C(=O)N[C@H](C(=O)N[C@@H](CCC(=O)O)C(=O)O)C(C)C)[C@@H](C)O)[C@@H](C)O [RVA57–74]	14.8	0.071	27.2	3.08	–	–
CC[C@H](C)[C@H](NC(=O)[C@@H](NC(=O)[C@H](CO)NC(=O)[C@@H](N)CC(=O)O)[C@@H](C)O)C(=O)N[C@H](C(=O)N[C@@H](CO)C(=O)N[C@@H](CCC(N)=O)C(=O)N[C@@H](CC(=O)O)C(=O)N[C@H](C(=O)N[C@@H](C)C(=O)N[C@@H](CC(N)=O)C(=O)N[C@@H](C)C(=O)N[C@H](C(=O)N[C@H](C(=O)NCC(=O)N[C@@H](Cc1ccc(O)cc1)C(=O)NCC(=O)N[C@H](C(=O)O)C(C)C)C(C)C)C(C)C)C(C)C)[C@@H](C)O [RVA89–106]	0.068	0.033	0.907	0.515	0.761	7.56
CC(C)C[C@H](NC(=O)[C@H](Cc1ccc(O)cc1)NC(=O)[C@H](Cc1c[nH]cn1)NC(=O)[C@@H]1CCCN1C(=O)[C@H](Cc1c[nH]c2ccccc12)NC(=O)[C@@H](NC(=O)CNC(=O)[C@H](Cc1ccc(O)cc1)NC(=O)CNC(=O)[C@@H](NC(=O)[C@@H](NC(=O)[C@H](C)NC(=O)[C@H](CC(N)=O)NC(=O)[C@H](C)NC(=O)[C@@H](N)C(C)C)C(C)C)C(C)C)C(C)C)C(=O)N[C@H](C(=O)N1CCC[C@H]1C(=O)N[C@@H](CCC(=O)O)C(=O)O)[C@@H](C)O [RVA97–114]	0.724	6.41	0.27	–	2.25	0.02
CC[C@H](C)[C@H](N)C(=O)N[C@@H](CC(N)=O)C(=O)N[C@@H](CC(C)C)C(=O)N[C@@H](CCCNC(=N)N)C(=O)N[C@H](C(=O)N[C@@H](CC(N)=O)C(=O)N[C@@H](CC(N)=O)C(=O)N[C@@H](CO)C(=O)N[C@@H](CO)C(=O)N[C@H](C(=O)N[C@H](C(=O)N[C@H](C(=O)N[C@H](C(=O)N1CCC[C@H]1C(=O)N[C@@H](Cc1ccc(O)cc1)C(=O)N[C@H](C(=O)N[C@@H](CC(N)=O)C(=O)O)[C@@H](C)CC)C(C)C)C(C)C)[C@@H](C)CC)[C@@H](C)O)[C@@H](C)O [RVC258–274]	–	0.067	19.1	0.434	–	5.2
CC[C@H](C)[C@H](NC(=O)[C@H](CC(=O)O)NC(=O)[C@H](CCCNC(=N)N)NC(=O)[C@H](Cc1ccccc1)NC(=O)[C@H](CCCCN)NC(=O)[C@H](CCC(=O)O)NC(=O)[C@@H](N)CCCCN)C(=O)N[C@@H](CCCNC(=N)N)C(=O)N[C@@H](CCCNC(=N)N)C(=O)N[C@@H](Cc1ccccc1)C(=O)N[C@H](C(=O)N1CCC[C@H]1C(=O)O)[C@@H](C)CC [RVC1582–1592]	–	–	7.43	–	–	2.95
CC(C)C[C@H](NC(=O)CN)C(=O)N[C@@H](CCC(=O)O)C(=O)N1CCC[C@H]1C(=O)N[C@@H](CC(C)C)C(=O)N[C@@H](CC(=O)O)C(=O)N[C@@H](CC(C)C)C(=O)N[C@@H](CC(N)=O)C(=O)N[C@H](C(=O)N[C@@H](CO)C(=O)N[C@@H](C)C(=O)NCC(=O)N[C@@H](Cc1ccccc1)C(=O)N1CCC[C@H]1C(=O)N[C@@H](Cc1ccc(O)cc1)C(=O)N[C@H](C(=O)O)C(C)C)[C@@H](C)O [RVC1791–1806]	1.82	1.92	12.4	0.191	10.4	–
CC(C)C[C@H](NC(=O)[C@H](CCC(=O)O)NC(=O)[C@H](CC(=O)O)NC(=O)[C@H](CCCCN)NC(=O)[C@H](CC(C)C)NC(=O)[C@H](Cc1ccc(O)cc1)NC(=O)[C@@H](NC(=O)[C@@H](NC(=O)[C@H](Cc1ccc(O)cc1)NC(=O)[C@@H]1CCCN1C(=O)[C@H](CC(C)C)NC(=O)[C@@H](N)CC(=O)O)C(C)C)[C@@H](C)O)C(=O)N[C@@H](CCCNC(=N)N)C(=O)O [RVC1835–1847]	–	–	0.171	5.67	–	12.7
